{"sequences": {"note": "The chains behind the UniProt entries cited, without tags or fusion partners.", "UniProt P35372, whole entry": "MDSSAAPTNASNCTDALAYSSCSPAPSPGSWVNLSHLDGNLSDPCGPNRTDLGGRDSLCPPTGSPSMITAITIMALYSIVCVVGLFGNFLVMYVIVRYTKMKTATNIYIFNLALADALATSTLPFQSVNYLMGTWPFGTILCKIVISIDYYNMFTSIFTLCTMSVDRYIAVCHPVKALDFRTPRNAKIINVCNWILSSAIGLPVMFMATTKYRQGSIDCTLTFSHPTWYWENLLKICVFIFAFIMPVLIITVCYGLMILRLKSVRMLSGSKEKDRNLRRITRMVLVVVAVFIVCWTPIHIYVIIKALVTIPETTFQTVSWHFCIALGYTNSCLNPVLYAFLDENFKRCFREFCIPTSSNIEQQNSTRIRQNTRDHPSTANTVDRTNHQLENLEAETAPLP", "UniProt P41143, whole entry": "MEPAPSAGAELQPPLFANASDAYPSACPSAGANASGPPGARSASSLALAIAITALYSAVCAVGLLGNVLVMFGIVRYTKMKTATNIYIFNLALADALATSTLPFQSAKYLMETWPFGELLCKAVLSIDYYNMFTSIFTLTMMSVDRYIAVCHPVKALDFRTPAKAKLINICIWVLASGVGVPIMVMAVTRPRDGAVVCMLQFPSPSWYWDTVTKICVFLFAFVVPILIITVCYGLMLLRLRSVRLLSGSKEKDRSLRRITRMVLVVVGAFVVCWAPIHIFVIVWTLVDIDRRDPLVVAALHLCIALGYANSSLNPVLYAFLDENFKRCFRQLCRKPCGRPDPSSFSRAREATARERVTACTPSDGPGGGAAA", "UniProt P41145, whole entry": "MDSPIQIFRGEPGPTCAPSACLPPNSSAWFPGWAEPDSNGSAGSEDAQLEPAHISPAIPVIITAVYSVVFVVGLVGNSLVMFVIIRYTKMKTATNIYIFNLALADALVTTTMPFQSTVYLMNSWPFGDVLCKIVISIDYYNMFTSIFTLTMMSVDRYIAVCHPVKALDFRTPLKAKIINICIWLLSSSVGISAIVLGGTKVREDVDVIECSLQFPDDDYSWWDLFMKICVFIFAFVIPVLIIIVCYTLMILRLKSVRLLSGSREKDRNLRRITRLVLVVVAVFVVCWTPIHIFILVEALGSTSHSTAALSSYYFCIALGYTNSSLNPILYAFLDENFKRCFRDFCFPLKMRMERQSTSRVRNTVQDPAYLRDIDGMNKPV"}, "source": "ChEMBL document CHEMBL1143931", "about": "“A new synthesis of the ORL-1 antagonist 1-[(3R,4R)-1-cyclooctylmethyl-3-hydroxymethyl-4-piperidinyl]-3-ethyl-1,3-dihydro-2H-benzimidazol-2-one (J-113397) and activity in a calcium mobilization assay” (2008)", "key": {"Homo sapiens [1]": {"species_on_record": "Homo sapiens", "experiment": "Selectivity for human ORL1 receptor over human mu opioid receptor"}, "Homo sapiens [2]": {"species_on_record": "Homo sapiens", "experiment": "Selectivity for human ORL1 receptor over human delta opioid receptor"}, "Homo sapiens [3]": {"species_on_record": "Homo sapiens", "experiment": "Selectivity for human ORL1 receptor over human kappa opioid receptor"}, "[4]": {"target": "Mu-type opioid receptor (Homo sapiens) (UniProt P35372)", "experiment": "Activity at human mu opioid receptor expressed in CHO cells by [35S]GTPgammaS binding assay"}, "[5]": {"target": "Delta-type opioid receptor (Homo sapiens) (UniProt P41143)", "experiment": "Activity at human delta opioid receptor expressed in CHO cells by [35S]GTP-gamma-S binding assay"}, "[6]": {"target": "Kappa-type opioid receptor (Homo sapiens) (UniProt P41145)", "experiment": "Activity at human kappa opioid receptor expressed in CHO cells by [35S]GTP-gamma-S binding assay"}}, "data": [{"smiles": "CCn1c(=O)n([C@@H]2CCN(CC3CCCCCCC3)C[C@H]2CO)c2ccccc21", "values": [{"measurement": "Ke", "setting": "Homo sapiens [1]", "value": 89, "unit": "nM"}, {"measurement": "Ke", "setting": "Homo sapiens [2]", "value": 887, "unit": "nM"}, {"measurement": "Ke", "setting": "Homo sapiens [3]", "value": 227, "unit": "nM"}, {"measurement": "Ke", "setting": "[4]", "value": 75.6, "unit": "nM"}, {"measurement": "Ke", "setting": "[5]", "value": 754, "unit": "nM"}, {"measurement": "Ke", "setting": "[6]", "value": 195, "unit": "nM"}]}]}
